In PMC3258025 (Molecular Cancer Therapeutics, 2010):

Tested on: HEK-EV cells
Conditions: cimetidine 1.5 mmol/L coincubation; P > 0.05

`CN/C(=N/CCSCc1nc[nH]c1C)NC#N` [cimetidine] was tested, and the “Reduction in picoplatin-DNA adduct concentration by cimetidine, HEK-EV cells” value was 1.37 fold.
